The values that follow are results of earlier work, collected in patent publication US11173135B2 (Thiogenesis Therapeutics, Inc., priority 2016, dated 2021).

The subject of one series is cystinosis patients. Conditions: high doses; cited from earlier work.
Series [1] relates to Plasmodium berghei ANKA strain. Conditions: mice infected with Plasmodium berghei ANKA; cited from earlier work.

Entries after “also recorded” stand apart in the source; their conditions may differ.

As for `CC(C)(CO)[C@@H](O)C(=O)NCCC(=O)NCCSSCCNC(=O)CCNC(=O)[C@H](O)C(C)(C)CO` [pantethine], the “excretion in the stool” value in the series on cystinosis patients was “most of the dose was excreted in the stool; also recorded: much of the pantethine was excreted unchanged in the stool”. Further, the cerebral syndrome result in series [1] was “prevents the cerebral syndrome”.
